{"source": "patent US7799799B2", "about": "“Indolizine derivatives, method for preparing same, and therapeutic compositions comprising same” (Sanofi-Aventis, priority 2005, dated 2010)", "assay": "Solubility test at pH=4 from phosphate buffer pH 6 0.1M, by HPLC", "format": "physicochemical", "procedure": "The results for solubility, S, and pH are shown in the table below and are expressed in mg/ml.\nA phosphate buffer, pH6, 0.1M, was prepared by adding 6.15 ml of 0.1M Na2HPO4 to 43.85 ml of 0.1M NaH2PO4. The solution was made up to 100 ml with filtered water using a Millipore system (trade mark).\nReference (Test Product in a Concentration in which the Latter is Soluble and which Acts as an Internal Reference)\nAbout 0.2 mg (in a boat) was weighed out exactly and diluted in 1 ml of H2O/CH3CN: (50:50), i.e. 0.2 mg/ml, then the sample was subjected to ultrasound for 5 minutes.\nAbout 4 mg (in a boat) was weighed out exactly and diluted in 400 μl (i.e. 10 mg/ml) of pH6 phosphate buffer (0.1M), then the sample was subjected to ultrasound for 5 minutes.\nThe pH was noted and if the pH was below 4, 1 μl of NaOH 1N was added (from 1 μl in 1 μl) until the pH was more than 4, then the pH was noted again. The solution (0.45 μm) was filtered then if necessary diluted with the phosphate buffer pH6. (If the product re-precipitated after diluting, the diluted sample was ignored, the mother solution was used and the solubility was determined at a wavelength other than λmax, to avoid saturating the signal.\nThe solubility of the compound was then determined by HPLC under the following conditions:\nInstrument: Agilent 1100 chromatograph\nColumn temperature: 30° C. […]", "data": [{"substance": "4-[3-(dipropylamino)propyl]phenyl}(2-isopropylindolizin-3-yl)methanone hydrochloride [compound 12]", "values": [{"measurement": "solubility, S", "setting": "phosphate buffer pH 6 0.1M, HPLC, first figure of the S/pH cell, the pH of the sample is the second", "value": 1200, "unit": "µg/mL"}, {"measurement": "pH (of the solubility sample)", "setting": "second figure of the S/pH cell, pH noted for the solubility sample", "value": 4.3}]}]}
